Test results reported in patent publication US20250215059A1 (REGENTS OF THE UNIVERSITY OF COLORADO A BODY CORPORATE, published 2025).

Target: T1, SRRM2_3-Halo (JF646 Halo ligand covalently bound to the Halo tag)
T1 construct: also called truncation 3
Assay: Halo (JF646) imaging in seeded HEK293 tau biosensor cells

binding result: no binding
B1: tau aggregates in HEK293 tau biosensor cells (4R repeat domain of tau (K18) with the P301S mutation fused to CFP or YFP, seeded with clarified tau mouse brain … (other, UniProt P10636-8 244-372, looked up)
chain: QTAPVPMPDLKNVKSKIGSTENLKHQPGGGKVQIINKKLDLSNVQSKCGSKDNIKHVSGGGSVQIVYKPVDLSKVTSKCGSLGNIHHKPGGGQVEVKSEKLDFKDRVQSKIGSLDNITHVPGGGNKKIE
notes: domain: 4R repeat domain of tau (K18); Aggregated, insoluble form inside cells; the aggregates are seeded with brain homogenate of tau transgenic mice and may hold other proteins and RNA; Number of chains in an aggregate not defined; also called cytoplasmic tau aggregates; nuclear tau aggregates; not shown: CFP or YFP fused to the repeat domain
